# Measured affinities in a library of Ab-14 heavy chain variants

Target peptide (SARS-CoV-2 spike, HR2 region): PDVDLGDISGINAS

Each scFv is VH, a (GGGGS)3 linker, VL, as in the parent Ab-14, and differs from it in the CDRs of the heavy chain only.
VH: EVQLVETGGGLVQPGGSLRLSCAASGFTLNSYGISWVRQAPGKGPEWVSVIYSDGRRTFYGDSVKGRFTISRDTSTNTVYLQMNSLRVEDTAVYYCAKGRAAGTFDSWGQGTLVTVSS
VL: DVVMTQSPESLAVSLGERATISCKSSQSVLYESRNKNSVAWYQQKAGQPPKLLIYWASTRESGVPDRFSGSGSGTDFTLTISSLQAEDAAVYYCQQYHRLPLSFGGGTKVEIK

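The parent was found by panning a naive human phage display library on the peptide. Designed CDR sequences, proposed from the first random library and measured here. Their group label is 14H_En_HC (En: ensemble of fine-tuned language models; HC: hill climbing; a sequence that several methods proposed may carry one label only). The scFvs were displayed on barcoded MATa yeast, the peptide on MATalpha yeast. After mating in shaken culture at 30 °C for 16 h, diploids were selected and their barcode pairs sequenced. A regression on co-assayed BCL2-family reference pairs converts the normalised counts of each replicate to an apparent Kd. The assay was run in six technical replicates.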

Each variant is given by its three heavy chain CDRs, as the data file delimits them; those of the parent are GFTLNSYGIS, VIYSDGRRTFYGDSVK, GRAAGTFDS.
Numbers give log10(Kd / nM), so 0 is 1 nM and 3 is 1 µM. Smaller is tighter.
Where no diploid with the target was found in that replicate, the entry reads "n.d.": below detection, most likely a poor binder, though not proof of it.
The range of this assay differs from that of the first round, and the authors advise against merging the two.

| CDR-H1 | CDR-H2 | CDR-H3 | log10 Kd, replicates | empty controls |
|---|---|---|---|---|
| GFDLNEYGIS | VIYADGRRTFYSDSVK | GNFGGTFDI | 0.08 / 0.36 / -0.03 / -0.15 / -0.16 / -0.14 | 0 of 18 |
| GFDLNEYGIS | VIYADGMRTFYSDSVK | GEAAGTFVS | n.d. / -0.06 / n.d. / 0.76 / n.d. / n.d. | 0 of 18 |
| GFDLNEYGIS | VIYADGRRTFYADSVK | GEAGGTFDK | n.d. / n.d. / n.d. / n.d. / n.d. / n.d. | 0 of 18 |
| GFDLNEYGIS | VIYADGRRTFYIDSVK | GEVAGTFNV | -0.07 / -0.07 / -0.33 / -0.65 / -0.44 / -0.12 | 0 of 18 |
| GFDLNEYGIS | VIYADGKRTFYADNVK | GEVAGTFDV | 0.03 / -0.70 / -0.71 / -0.84 / -0.52 / -0.41 | 0 of 18 |
| GFDLDEYGIS | VIYADGRRTFYADSVK | GEAAGTFDA | -0.06 / 0.09 / 0.21 / -0.27 / -0.55 / -0.02 | 0 of 18 |
| GFDLDEYGIS | VIYADGRRTFYADSVK | GSNAGTFLM | n.d. / n.d. / n.d. / n.d. / 1.11 / 0.72 | 0 of 18 |
| GFDLNEYGIS | VIYADGRRTFYTDNVK | GQNAGTFDS | 0.29 / -0.24 / -0.11 / -0.03 / 0.00 / 0.12 | 0 of 18 |
| GFDLNEYGIS | VIYADGKRTFYQDSVK | GEIAGTFDQ | -0.29 / -0.08 / -0.13 / -0.44 / -0.31 / 0.50 | 0 of 18 |
| GFDLDEYGIS | VIYADGQRTFYIDSVK | GETAGTFDS | n.d. / -0.18 / -0.20 / -0.25 / -0.21 / -0.06 | 0 of 18 |
| GFDLNEYGIS | VIYADGRRTYYIDSVK | GEIAGTFNV | 0.29 / 0.17 / -0.67 / -0.70 / -0.42 / 0.52 | 0 of 18 |
| GFDLNEYGIS | VIYADGRRTFYADSVK | GKNAGTFVV | 0.11 / 0.00 / 0.57 / -0.23 / 0.13 / 1.54 | 0 of 18 |
| GFDLEDYGIS | VIYADGRRTAYADSVK | GEQAGTFDL | -0.42 / 0.00 / -0.02 / -0.58 / -0.14 / -0.18 | 0 of 18 |
| GFDLNEYGIS | VIYADGRRTQYIDSVK | GEIAGTFDK | -0.58 / -0.28 / -0.54 / -0.56 / -0.84 / -0.38 | 0 of 18 |
| GFDLNEYGIS | VIYADGRRTAYADSVK | GGNAGTFDS | -0.45 / -0.54 / -0.58 / -0.55 / -0.65 / -0.38 | 0 of 18 |
| GFTLDEYGIS | VIYADGRRTFYQDSVK | GNVAGTFDI | -0.45 / -0.21 / -0.29 / -0.42 / -0.37 / -0.20 | 1 of 18 (3.13) |
| GFDLNEYGIS | VIYADGRRTAYSDSVK | GEAAGTFDT | -0.10 / -0.21 / -0.32 / -0.37 / -0.31 / -0.10 | 0 of 18 |
| GFDLNEYGIS | VIYADGRRTFYSDSVK | GEVAGTFVV | -0.01 / -0.03 / 0.00 / -0.19 / -0.10 / -0.02 | 0 of 18 |
| GFNLDEYGIS | VIYADGRRTFYADSVK | GQVAGTFLI | 0.14 / -0.22 / 0.40 / -0.12 / -0.01 / -0.13 | 0 of 18 |
| GFDLNEYGIS | VIYADGKRTFYADSVK | GQAAGTFDA | -0.04 / -0.65 / 0.22 / -0.22 / -0.61 / -0.63 | 0 of 18 |
| GFNLNEYGIS | VIYADGMRTFYADSVK | GETAGTFDV | -0.27 / -0.63 / -0.27 / -0.81 / -0.84 / -0.45 | 0 of 18 |
| GFDLNEYGIS | VIYADGQRTAYADSVK | GKAAGTFDN | -0.39 / -0.23 / -0.63 / -1.05 / -0.89 / -0.63 | 0 of 18 |
| GFDLNEYGIS | VIYADGMRTAYIDSVK | GEVAGTFDS | -0.23 / -0.65 / -0.80 / -0.97 / -0.50 / -0.41 | 0 of 18 |
| GFDLNEYGIS | VIYADGMRTFYADSVK | GELAGTFDF | -0.84 / -0.86 / -0.78 / -0.53 / -0.94 / -0.98 | 0 of 18 |
| GFDLNEYGIS | VIYADGMRTFYSDSVK | GEIAGTFDQ | -0.34 / -0.55 / -0.60 / -0.46 / -0.83 / -0.26 | 1 of 18 (1.54) |
| GFNLDEYGIS | VIYADGRRTFYQDSVK | GNVAGTFDS | -0.40 / -0.33 / -0.65 / -0.48 / 0.01 / -0.34 | 0 of 18 |
| GFDLNEYGIS | VIYADGRRTFYADNVK | GEVAGTFIS | 0.12 / 0.33 / 0.70 / 0.12 / 1.08 / 0.75 | 0 of 18 |
| GFNLDEYGIS | VIYADGRRTFYQDSVK | GEGAGTFDI | 0.28 / -0.05 / -0.25 / -0.50 / -0.40 / -0.05 | 1 of 18 (2.73) |
| GFDLDEYGIS | VIYADGRRTFYIDSVK | GETAGTFDF | -0.46 / -0.34 / -0.69 / -0.33 / -0.22 / -0.13 | 0 of 18 |
| GFDLDEYGIS | VIYADGRRTFYADSVK | GTNAGTFDI | -0.36 / -0.68 / 0.47 / 0.08 / 0.34 / 0.20 | 0 of 18 |
| GFDLNEYGIS | VIYADGRRTQYIDSVK | GETAGTFDD | -0.16 / -0.69 / 0.09 / -0.44 / -0.32 / -0.73 | 0 of 18 |
| GFDLNEYGIS | VIYADGMRTFYADSVK | GQLAGTFDM | 0.25 / 0.44 / 0.57 / -0.52 / -0.29 / -0.12 | 0 of 18 |
| GFDLNEYGIS | VIYADGLRTSYTDSVK | GQLAGTFDQ | -1.02 / -0.33 / -0.81 / -0.32 / -0.88 / 0.41 | 0 of 18 |
| GFNLNEYGIS | VIYADGMRTAYSDSVK | GEAAGTFDV | -0.18 / -0.65 / -0.92 / -0.90 / -1.02 / -0.61 | 0 of 18 |
| GFDLNEYGIS | VIYADGRRTFYADSVK | GEAAGTFDQ | -0.50 / -0.62 / -0.45 / -0.60 / -0.84 / -0.77 | 0 of 18 |
| GFNLNEYGIS | VIYADGRRSFYTDSVK | GEAAGTFDV | -0.61 / -0.32 / -0.58 / -0.67 / -0.52 / -0.71 | 0 of 18 |
| GFDLNEYGIS | VIYADGRRTAYADSVK | GTVAGTFNV | -0.17 / -0.35 / -0.18 / -0.69 / -0.42 / -0.15 | 0 of 18 |
| GFDLEEYGIS | VIYADGRRTFYADSVK | GENAGTFDI | 0.58 / -0.04 / -0.25 / -0.31 / -0.07 / 0.16 | 0 of 18 |
| GFNLNEYGIS | VIYADGMRTFYADSVK | GEAAGTFDS | -0.35 / -0.96 / -1.31 / -1.33 / -1.39 / -0.36 | 0 of 18 |
| GFDLNEYGIS | VIYADGRRTFYADSVK | GEAAGTFNI | -0.45 / -0.49 / -0.52 / -0.58 / -0.71 / -0.37 | 0 of 18 |
| GFDLNDYGIS | VIYADGRRTFYADSVK | GEAAGTFDV | 0.16 / -0.07 / -0.10 / 0.30 / -0.19 / 0.23 | 1 of 18 (1.29) |

Excerpt, the first 3 entries:

CDR-H1	CDR-H2	CDR-H3	log10 Kd, replicates	empty controls
GFDLNEYGIS	VIYADGRRTFYSDSVK	GNFGGTFDI	0.08 / 0.36 / -0.03 / -0.15 / -0.16 / -0.14	0 of 18
GFDLNEYGIS	VIYADGMRTFYSDSVK	GEAAGTFVS	n.d. / -0.06 / n.d. / 0.76 / n.d. / n.d.	0 of 18
GFDLNEYGIS	VIYADGRRTFYADSVK	GEAGGTFDK	n.d. / n.d. / n.d. / n.d. / n.d. / n.d.	0 of 18

As a blank, each scFv also met three strains without target: over all heavy chain designs, 1% of these pairings were detected, typically at 2.08 and seldom below 0.84. Also given: how often the same scFv was detected with the empty control strains, with their mean in brackets.
Of ten entries with the parent sequence, four were seen in most replicates (averages 0.34 to 2.37), three in one and three in none, so single entries are noisy.
The authors averaged sequences with at least three values out of six and counted those with two or fewer as poor binders.

The measurements come from Li et al. 2023 (doi:10.1038/s41467-023-39022-2) through the FLAb antibody collection.